{
  "source": "paper PMC5742776",
  "about": "(Foods, 2017)",
  "tested_on": "dipeptidyl peptidase-IV (DPP-IV; EC 3.4.14.5)",
  "type": "biochemical",
  "settings": "positive control; 37 °C, 30 min; fluorescence 355/460 nm; triplicate",
  "data": [
    {"smiles": "N[C@@H](CC(=O)N1CCn2c(nnc2C(F)(F)F)C1)Cc1cc(F)c(F)cc1F", "note": "[sitagliptin, reference compound]", "values": [
      {"measurement": "% DPP-IV inhibition", "value": "87.4 ± 4", "unit": "%"}
    ]}
  ]
}
